To fix the notation:
B1: P3A1 G1 NAC6: P3A1 G1 loop variant VNAR, SEQ ID NO: 79 (protein)
chain: TRVDQSPSSLSASVGDRVTITCVLTDTRYALYSTYWYRKNPGSTDEERISIGGRYSESVNKGSKSFTLTISSLQPEDSATYYCRAREARHPWLRQWYDGAGTKVEIKQACKAHHHHHHG
B2: P3A1 G1 AE3: P3A1 G1 loop variant VNAR, SEQ ID NO: 77 (protein)
chain: B1 chain with D26G, A30G, T44S, G52S, S63T
B3: P3A1 G1 NAG8: P3A1 G1 loop variant VNAR, SEQ ID NO: 81 (protein)
chain: TRVDQSPSSLSASVGDRVTITCVLTGTKYGLYATYWYRKNPGSPNKDRMIIGGRYSESVNNGTKSFTLTISSLQPEDSATYYCRAREARHPWLRQWYDGAGTKVEIKQACKAHHHHHHGAEFEQKLISEEDLG
B4: P3A1 G1 NAC6.S: P3A1 G1 loop variant VNAR, SEQ ID NO: 80 (protein)
chain: TRVDQSPSSLSASVGDRVTITCVLTDTRYALYSSTYWYRKNPGSTDEERISIGGRYSESVNKGSKSFTLTISSLQPEDSATYYCRAREARHPWLRQWYDGAGTKVEIKQASGAHHHHHHGAEFEQKLISEEDL
B5: P3A1 G1 AE3.S: P3A1 G1 loop variant VNAR, SEQ ID NO: 78 (protein)
chain: B4 chain with D26G, A30G, T45S, G53S, S64T

Numbering of substitutions follows the chain as printed.

The assay deals with hROR1 and mROR1. The assay can be described thus: Binding to both hROR1 and mROR1 (summary statement). Also on record: species or system human, mouse.
Regarding B1, the “experimentally confirmed binding to both hROR1 and mROR1” value (from here on “experimentally confirmed binding”) was “bind to both hROR1 and mROR1”.
On to B2, for which the “experimentally confirmed binding” value was “bind to both hROR1 and mROR1”.
As for B3, the “experimentally confirmed binding” value was “bind to both hROR1 and mROR1”.
The same measure for B4: “bind to both hROR1 and mROR1”; for B5: “bind to both hROR1 and mROR1”.
